From paper PMC3153955

test system: C[C@@H]1O[C@@H]1P(=O)(O)O; assay: purified protein; settings: 1 mM ATP, 10 mM MgCl2, 100 mM KCl, pH 7.2, 25 °C

Substance	Km	kcat
FomA (fosfomycin resistance kinase FomA) (Streptomyces wedmorensis; D208A)	17.5 ± 2.5 µM	11.9 ± 0.4 s⁻¹
FomA (fosfomycin resistance kinase FomA) (Streptomyces wedmorensis; K9A)	23.1 ± 3.1 µM	4.5 ± 0.3 s⁻¹
FomA (fosfomycin resistance kinase FomA) (Streptomyces wedmorensis; S148A)	169.8 ± 22.2 µM	35.0 ± 2.6 s⁻¹
FomA (fosfomycin resistance kinase FomA) (Streptomyces wedmorensis; S149A)	383.2 ± 45.3 µM	14.5 ± 2.2 s⁻¹
